For the experiment, the target named is T1, murine eIF4E (28-217) (Mus musculus, UniProt P63073).
T1 construct: (28-217) to phosphorothioate cap analogs, as determined
The experiment is described as follows: Binding affinities for eIF4E by fluorescence quenching. The settings on record: for KAS: equilibrium association constant, fluorescence quenching. As to the method: Binding affinities of S analogs for murine eIF4E were determined by fluorescence quenching. Fluorescence titration measurements were carried out on an LS-50B spectrofluorometer (Perkin Elmer Co.) in 50 mM HEPES/KOH (pH 7.2), 100 mM KCl, 0.5 mM EDTA, 1 mM DTT at 20.0±0.2° C. Aliquots of 1 μl increasing concentration of cap analogue solutions were added to 1.4 ml of […] solutions. Fluorescence intensities (excitation at 280 nm with 2.5 nm bandwidth and detection at 337 nm with 4 nm bandwidth and 290 nm cut-off filter) were corrected taking into account sample dilution and the inner filter effect. Equilibrium association constants (KAS) were determined by fitting the theoretical dependence of the fluorescence intensity on the total concentration of cap analogue to the experimental data points according to equation described previously (See A. Niedzwiecka et al., “Biophysical studies of eIF4E cap-binding protein: recognition of mRNA 5′ cap structure and synthetic fragments of eIF4G and 4E-BP1 proteins,” J. Mol. Biol., vol. 319, pp. 615-635 (2002)). The concentration of protein was fitted as a free parameter of equilibrium equation showing amount of “active” protein. The final KAS was calculated as a weighted average of three to ten independent titrations, with the weights taken as the reciprocals of the numerical standard deviations squared. Numerical nonlinear least-squares regression analysis was performed using ORGIN 6.0 (Microcal Software Inc., USA). The Gibbs free energy of binding was calculated from the KAS value according to the standard equation ΔG°=−RTlnKAS.

Amino acid sequences for entries named in this document (tags omitted). Residues count along the entry.
UniProt P63073, 28-217: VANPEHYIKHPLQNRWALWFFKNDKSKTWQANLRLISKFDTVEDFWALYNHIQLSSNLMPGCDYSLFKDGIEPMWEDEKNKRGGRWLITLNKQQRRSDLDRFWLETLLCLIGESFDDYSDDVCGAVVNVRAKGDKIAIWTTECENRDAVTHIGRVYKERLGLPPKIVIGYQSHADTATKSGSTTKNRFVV

With m^7GpsppG (D2) [Compound 3b], the KAS was 10.0 ± 0.2 µM⁻¹. Besides, for the setting “binding free energy calculated from KAS”, the “ΔG°” value was -9.39 ± 0.01 kcal/mol. Under “listed as m^7GpsppG (D2)”, this substance showed a KAS of 10.0 ± 0.2 µM⁻¹.

The record behind these values is US8153773B2, “Synthesis and use of anti-reverse phosphorothioate analogs of the messenger RNA cap” (Board of Supervisors of Louisiana State University and …, priority 2007, dated 2012).
